# CycPeptMPDB entries from one study

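Conditions beyond the assay type are not listed; see the original paper. Other peptides of the study may be missing here. Entries at the database's floor value (log10 P of -10) are not listed.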

PAMPA measures passive passage through an artificial lipid membrane. P is given in units of 10^-6 cm/s (from log10 values with two decimals); larger means faster passage.

- CC(=O)N1CCC[C@@H]1C(=O)N(C)[C@H](CC(C)C)C(=O)N[C@@H]1C(=O)N[C@H](CC(C)C)C(=O)N[C@@H](CC(C)C)C(=O)N[C@H](CC(C)C)C(=O)N[C@@H](C)C(=O)N[C@H](CC(C)C)C(=O)N2CCC[C@@H]2C(=O)O[C@@H]1C: PAMPA 0.025 × 10^-6 cm/s
- CC(=O)N1CCC[C@H]1C(=O)N(C)[C@@H](CC(C)C)C(=O)N[C@@H]1C(=O)N(C)[C@H](CC(C)C)C(=O)N[C@H](CC(C)C)C(=O)N(C)[C@H](CC(C)C)C(=O)N(C)[C@H](C)C(=O)N[C@H](CC(C)C)C(=O)N2CCC[C@@H]2C(=O)O[C@@H]1C: PAMPA 0.91 × 10^-6 cm/s
- CC(=O)N1CCC[C@@H]1C(=O)N(C)[C@H](CC(C)C)C(=O)N[C@@H]1C(=O)N(C)[C@@H](CC(C)C)C(=O)N(C)[C@H](CC(C)C)C(=O)N(C)[C@@H](CC(C)C)C(=O)N(C)[C@@H](C)C(=O)N[C@@H](CC(C)C)C(=O)N2CCC[C@@H]2C(=O)O[C@@H]1C: PAMPA 4.4 × 10^-6 cm/s
- CC(=O)N1CCC[C@@H]1C(=O)N(C)[C@@H](CC(C)C)C(=O)N[C@@H]1C(=O)N(C)[C@H](CC(C)C)C(=O)N[C@H](CC(C)C)C(=O)N(C)[C@H](CC(C)C)C(=O)N(C)[C@H](C)C(=O)N[C@H](CC(C)C)C(=O)N2CCC[C@H]2C(=O)O[C@@H]1C: PAMPA 1.9 × 10^-6 cm/s
- CC(=O)N1CCC[C@@H]1C(=O)N(C)[C@H](CC(C)C)C(=O)N[C@@H]1C(=O)N[C@H](CC(C)C)C(=O)N(C)[C@@H](CC(C)C)C(=O)N[C@@H](CC(C)C)C(=O)N(C)[C@H](C)C(=O)N[C@H](CC(C)C)C(=O)N2CCC[C@H]2C(=O)O[C@@H]1C: PAMPA 2.4 × 10^-6 cm/s
- CC(=O)N[C@@H]1C(=O)N2CCC[C@H]2C(=O)N(C)[C@H](CC(C)C)C(=O)N[C@H](CC(C)C)C(=O)N[C@H](CC(C)C)C(=O)N[C@@H](CC(C)C)C(=O)N(C)[C@H](C)C(=O)N[C@@H](CC(C)C)C(=O)N2CCC[C@@H]2C(=O)O[C@@H]1C: PAMPA 0.16 × 10^-6 cm/s
- CC(=O)N1CCC[C@H]1C(=O)N[C@@H]1C(=O)N[C@H](CC(C)C)C(=O)N[C@H](CC(C)C)C(=O)N[C@@H](CC(C)C)C(=O)N[C@@H](CC(C)C)C(=O)N(C)[C@@H](C)C(=O)N[C@@H](CC(C)C)C(=O)N2CCC[C@@H]2C(=O)O[C@@H]1C: PAMPA 0.63 × 10^-6 cm/s
- CC(=O)N1CCC[C@H]1C(=O)N[C@@H]1C(=O)N[C@H](CC(C)C)C(=O)N[C@@H](CC(C)C)C(=O)N[C@@H](CC(C)C)C(=O)N[C@H](CC(C)C)C(=O)N(C)[C@H](C)C(=O)N[C@@H](CC(C)C)C(=O)N2CCC[C@@H]2C(=O)O[C@@H]1C: PAMPA 9.8 × 10^-6 cm/s
- CC(=O)N1CCC[C@@H]1C(=O)N(C)[C@@H](CC(C)C)C(=O)N[C@@H]1C(=O)N[C@H](CC(C)C)C(=O)N(C)[C@H](CC(C)C)C(=O)N(C)[C@H](CC(C)C)C(=O)N[C@@H](C)C(=O)N[C@H](CC(C)C)C(=O)N2CCC[C@H]2C(=O)O[C@@H]1C: PAMPA 2.8 × 10^-6 cm/s
- CC(=O)N1CCC[C@@H]1C(=O)N(C)[C@H](CC(C)C)C(=O)N[C@@H]1C(=O)N(C)[C@@H](CC(C)C)C(=O)N(C)[C@H](CC(C)C)C(=O)N[C@H](CC(C)C)C(=O)N(C)[C@@H](C)C(=O)N[C@H](CC(C)C)C(=O)N2CCC[C@@H]2C(=O)O[C@@H]1C: PAMPA 0.87 × 10^-6 cm/s
- CC(=O)N1CCC[C@@H]1C(=O)N(C)[C@@H](CC(C)C)C(=O)N[C@@H]1C(=O)N[C@@H](CC(C)C)C(=O)N(C)[C@H](CC(C)C)C(=O)N(C)[C@@H](CC(C)C)C(=O)N(C)[C@H](C)C(=O)N[C@@H](CC(C)C)C(=O)N2CCC[C@@H]2C(=O)O[C@@H]1C: PAMPA 7.4 × 10^-6 cm/s
- CC(=O)N1CCC[C@@H]1C(=O)N(C)[C@@H](CC(C)C)C(=O)N[C@@H]1C(=O)N[C@@H](CC(C)C)C(=O)N[C@@H](CC(C)C)C(=O)N[C@@H](CC(C)C)C(=O)N(C)[C@@H](C)C(=O)N[C@@H](CC(C)C)C(=O)N2CCC[C@@H]2C(=O)O[C@@H]1C: PAMPA 0.37 × 10^-6 cm/s
- CC(=O)N1CCC[C@H]1C(=O)N(C)[C@H](CC(C)C)C(=O)N[C@@H]1C(=O)N[C@H](CC(C)C)C(=O)N[C@H](CC(C)C)C(=O)N(C)[C@@H](CC(C)C)C(=O)N(C)[C@@H](C)C(=O)N[C@H](CC(C)C)C(=O)N2CCC[C@@H]2C(=O)O[C@@H]1C: PAMPA 4.2 × 10^-6 cm/s
- CC(=O)N1CCC[C@H]1C(=O)N(C)[C@H](CC(C)C)C(=O)N[C@@H]1C(=O)N[C@H](CC(C)C)C(=O)N[C@H](CC(C)C)C(=O)N(C)[C@H](CC(C)C)C(=O)N(C)[C@@H](C)C(=O)N[C@H](CC(C)C)C(=O)N2CCC[C@@H]2C(=O)O[C@@H]1C: PAMPA 2.2 × 10^-6 cm/s
- CC(=O)N1CCC[C@H]1C(=O)N[C@@H]1C(=O)N[C@H](CC(C)C)C(=O)N(C)[C@@H](CC(C)C)C(=O)N(C)[C@@H](CC(C)C)C(=O)N(C)[C@@H](CC(C)C)C(=O)N(C)[C@H](C)C(=O)N[C@@H](CC(C)C)C(=O)N2CCC[C@@H]2C(=O)O[C@@H]1C: PAMPA 9.8 × 10^-6 cm/s
- CC(=O)N1CCC[C@@H]1C(=O)N(C)[C@H](CC(C)C)C(=O)N[C@@H]1C(=O)N(C)[C@@H](CC(C)C)C(=O)N(C)[C@@H](CC(C)C)C(=O)N[C@@H](CC(C)C)C(=O)N(C)[C@@H](C)C(=O)N[C@H](CC(C)C)C(=O)N2CCC[C@@H]2C(=O)O[C@@H]1C: PAMPA 5.5 × 10^-6 cm/s
- CC(=O)N1CCC[C@H]1C(=O)N[C@@H]1C(=O)N[C@H](CC(C)C)C(=O)N[C@H](CC(C)C)C(=O)N[C@@H](CC(C)C)C(=O)N[C@@H](CC(C)C)C(=O)N(C)[C@H](C)C(=O)N[C@@H](CC(C)C)C(=O)N2CCC[C@@H]2C(=O)O[C@@H]1C: PAMPA 0.17 × 10^-6 cm/s

Extract of 2 entries:

* CC(=O)N1CCC[C@H]1C(=O)N(C)[C@H](CC(C)C)C(=O)N[C@@H]1C(=O)N[C@H](CC(C)C)C(=O)N[C@H](CC(C)C)C(=O)N(C)[C@H](CC(C)C)C(=O)N(C)[C@@H](C)C(=O)N[C@H](CC(C)C)C(=O)N2CCC[C@@H]2C(=O)O[C@@H]1C: PAMPA 2.2 × 10^-6 cm/s
* CC(=O)N1CCC[C@H]1C(=O)N[C@@H]1C(=O)N[C@H](CC(C)C)C(=O)N[C@H](CC(C)C)C(=O)N[C@@H](CC(C)C)C(=O)N[C@@H](CC(C)C)C(=O)N(C)[C@@H](C)C(=O)N[C@@H](CC(C)C)C(=O)N2CCC[C@@H]2C(=O)O[C@@H]1C: PAMPA 0.63 × 10^-6 cm/s

Values of Kelly et al. 2021, doi:10.1021/jacs.0c06115, as listed in CycPeptMPDB.